Values quoted from earlier work, collected in PMC2788666 (Journal of medicinal chemistry, 2009).

Chains of the proteins cited; added tags and fusions are not shown. Lines headed by an entry give the natural chain unless they say otherwise; changes in a name come on top.
UniProt P41145: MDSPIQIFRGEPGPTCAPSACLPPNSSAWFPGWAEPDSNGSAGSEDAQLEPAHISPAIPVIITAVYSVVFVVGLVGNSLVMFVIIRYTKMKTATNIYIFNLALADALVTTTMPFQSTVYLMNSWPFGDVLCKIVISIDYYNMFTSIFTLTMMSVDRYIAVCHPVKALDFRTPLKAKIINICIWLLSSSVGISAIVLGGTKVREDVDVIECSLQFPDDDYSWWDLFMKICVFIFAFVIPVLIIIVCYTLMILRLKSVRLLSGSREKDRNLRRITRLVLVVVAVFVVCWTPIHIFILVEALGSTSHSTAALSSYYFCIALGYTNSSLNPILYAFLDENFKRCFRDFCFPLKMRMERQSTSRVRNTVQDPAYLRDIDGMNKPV

Biological target: κ opioid receptor (Homo sapiens, UniProt P41145)
Conditions: ratio of Ki values, κ = 1; ref [9]; cited from earlier work

Oc1ccc2c(c1)[C@@]13CCCC[C@H]1[C@@H](C2)N(CC1CCC1)CC3 [Butorphan, butorphan]
Selectivity μ/δ/κ: 3/75/1
